Data on one compound can be found in US12428408B2, “Fused heterocyclic mescaline derivatives” (Enveric Biosciences Canada Inc., priority 2022, dated 2025).

Chains of the proteins cited; added tags and fusions are not shown.
UniProt P23975, whole entry: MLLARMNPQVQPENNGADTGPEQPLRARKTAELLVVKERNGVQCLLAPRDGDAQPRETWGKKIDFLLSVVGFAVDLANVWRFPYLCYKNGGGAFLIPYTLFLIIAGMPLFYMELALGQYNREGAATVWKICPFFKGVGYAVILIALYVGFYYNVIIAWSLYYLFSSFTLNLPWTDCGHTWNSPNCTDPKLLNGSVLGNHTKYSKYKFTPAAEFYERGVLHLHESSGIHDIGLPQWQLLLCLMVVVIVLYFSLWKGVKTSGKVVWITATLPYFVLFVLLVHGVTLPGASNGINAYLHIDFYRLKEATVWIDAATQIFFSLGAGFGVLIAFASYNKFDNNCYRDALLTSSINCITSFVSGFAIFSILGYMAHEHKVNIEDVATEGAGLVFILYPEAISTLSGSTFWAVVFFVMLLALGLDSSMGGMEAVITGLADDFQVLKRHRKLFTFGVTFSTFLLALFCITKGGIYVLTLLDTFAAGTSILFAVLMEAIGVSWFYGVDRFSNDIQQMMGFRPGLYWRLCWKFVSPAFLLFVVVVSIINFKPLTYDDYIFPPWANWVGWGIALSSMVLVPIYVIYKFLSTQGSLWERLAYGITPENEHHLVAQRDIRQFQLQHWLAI

The target in the assay is T1, NET (h) (Homo sapiens, UniProt P23975).
T1 construct: host or cells: CHO cells
In words: Competition assay to measure binding affinity at norepinephrine transporter (NET). Particulars: test ligand 10 μM; [3H]nisoxetine 1 nM.

On to `CC(NC(C)(C)C)C(=O)c1cccc(Cl)c1` (stereo not shown) [Bupropion, reference compound], for which the “NET, percent of control-specific binding” value was 12%.
